Article PMC11887051 (ACS Chemical Neuroscience, 2025)

The chains behind the UniProt entries cited, without tags or fusion partners.
UniProt O95069, whole entry: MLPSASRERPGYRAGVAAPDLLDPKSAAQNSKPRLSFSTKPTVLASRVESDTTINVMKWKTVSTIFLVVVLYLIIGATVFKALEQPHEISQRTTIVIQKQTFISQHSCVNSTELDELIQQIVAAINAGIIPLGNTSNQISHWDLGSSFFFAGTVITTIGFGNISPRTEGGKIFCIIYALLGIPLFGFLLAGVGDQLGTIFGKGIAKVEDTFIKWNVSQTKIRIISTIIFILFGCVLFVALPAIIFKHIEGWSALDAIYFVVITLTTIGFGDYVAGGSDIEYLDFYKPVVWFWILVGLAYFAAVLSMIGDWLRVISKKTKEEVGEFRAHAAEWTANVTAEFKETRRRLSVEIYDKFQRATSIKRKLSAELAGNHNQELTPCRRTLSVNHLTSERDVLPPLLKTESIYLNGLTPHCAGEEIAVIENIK
UniProt P57789, whole entry: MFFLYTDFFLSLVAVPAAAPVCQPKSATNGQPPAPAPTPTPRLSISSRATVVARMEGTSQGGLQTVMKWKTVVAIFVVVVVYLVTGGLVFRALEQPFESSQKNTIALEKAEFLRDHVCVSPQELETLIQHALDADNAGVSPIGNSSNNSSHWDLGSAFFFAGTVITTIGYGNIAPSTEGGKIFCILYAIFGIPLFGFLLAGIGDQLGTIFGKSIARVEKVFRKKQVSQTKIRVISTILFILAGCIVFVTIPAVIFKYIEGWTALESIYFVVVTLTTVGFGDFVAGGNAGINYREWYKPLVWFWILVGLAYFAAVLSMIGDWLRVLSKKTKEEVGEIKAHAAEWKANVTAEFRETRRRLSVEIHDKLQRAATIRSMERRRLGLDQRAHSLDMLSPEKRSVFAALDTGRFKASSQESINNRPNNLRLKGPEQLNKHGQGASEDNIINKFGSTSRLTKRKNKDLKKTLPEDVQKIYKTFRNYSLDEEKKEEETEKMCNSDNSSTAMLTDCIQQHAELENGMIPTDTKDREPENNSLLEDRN

Columns and labels:
TREK-1 = TREK-1 (Homo sapiens, UniProt O95069); assay: Additional TREK SAR (Figure S5), TREK-1, assay not named; assay type: cell-based
TREK-2 = TREK-2 (Homo sapiens, UniProt P57789); assay: Additional TREK SAR (Figure S5), TREK-2, assay not named; assay type: cell-based

| SMILES | TREK-1 (%) (TREK-1) | TREK-2 (%) (TREK-2) |
| --- | --- | --- |
| O=C(NCc1ccc(OC(F)(F)F)cc1F)c1ccn2cnnc2c1 | 98% | 185% |
| O=C(NCc1ccc(OC(F)(F)F)cc1)c1ccc(-n2cncn2)cc1 | 57% | 152% |
| O=C(NCc1ccc(OC(F)(F)F)c(F)c1)c1ccc2ncnn2c1 | 90% | 141% |

Next, values leading:

| TREK-1 (%) (TREK-1) | TREK-2 (%) (TREK-2) | SMILES |
| --- | --- | --- |
| 90% | 182% | O=C(NCc1ccc(OC(F)(F)F)c(F)c1)c1ccn2cnnc2c1 |
| 32% | 161% | O=C(NCc1ccc(OC(F)(F)F)cc1F)c1cc2ncccn2n1 |
| 75% | 152% | COc1cc(OC(F)(F)F)ccc1CNC(=O)c1ccn2cnnc2c1 |
